Laboratory results reported in ChEMBL document CHEMBL5104179, “Discovery and Structural Characterization of Small Molecule Binders of the Human CTLH E3 Ligase Subunit GID4” (J Med Chem, 2022).

What follows are compounds tested against T1, Glucose-induced degradation protein 4 homolog (Homo sapiens) (UniProt Q8IVV7).
T1 sequence (whole entry): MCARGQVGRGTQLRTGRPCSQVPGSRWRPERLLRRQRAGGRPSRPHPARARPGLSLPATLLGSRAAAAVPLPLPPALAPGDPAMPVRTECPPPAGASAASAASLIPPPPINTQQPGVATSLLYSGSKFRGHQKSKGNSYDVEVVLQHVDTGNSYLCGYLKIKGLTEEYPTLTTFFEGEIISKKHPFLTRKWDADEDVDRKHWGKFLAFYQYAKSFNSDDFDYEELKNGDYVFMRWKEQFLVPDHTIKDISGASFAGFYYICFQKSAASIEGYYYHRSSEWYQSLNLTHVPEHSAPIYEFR

SMILES | ΔTm
CC1CN=C(Nc2ccc(O)cc2)S1 (stereo not drawn) | 3 °C
COc1cccc(C2CCCc3ccccc32)c1 (stereo not drawn) | 7.8 °C
COc1ccc(C2NCCc3ccccc32)cc1 (stereo not drawn) | 6.7 °C
Cc1ccc(C2NCCc3sccc32)cc1 (stereo not drawn) | 5.9 °C
CNC(=O)[C@H](Cc1ccc(C)cc1)NC(=O)[C@@H](C/C=C/c1ccccc1)NC(=O)CNCc1ccccc1 | 8.8 °C
Clc1ccc(NC2=NCCCS2)cc1 | 0.1 °C
Clc1cccc(C2NCCc3sccc32)c1 (stereo not drawn) | 7.3 °C
CC1CN=C(Nc2ccccc2F)S1 (stereo not drawn) | 1.6 °C
CC1CN=C(Nc2cccc(O)c2)S1 (racemic) | 5.3 °C
CCCCNCC(=O)N[C@H](Cc1ccc(C(C)(C)C)cc1)C(=O)N[C@@H](Cc1cccc(OC)c1)C(=O)NC | 8.7 °C
Brc1cccc2c1CCNC2c1ccccc1 (stereo not drawn) | 7 °C
Nc1ccc(NC2=NCCS2)cc1 | 1.8 °C
c1ccc(C2NCCc3[nH]ccc32)cc1 (stereo not drawn) | 9.2 °C
Fc1ccccc1C1NCCc2sccc21 (stereo not drawn) | 5.8 °C
c1ccc(C2NCCc3occc32)cc1 (stereo not drawn) | 8.7 °C
CC1CN=C(Nc2cccc(F)c2)S1 (stereo not drawn) | 6 °C
CC(C)(C)OC(=O)N1CC2CC1CN2 (stereo not drawn) | 6.7 °C
Nc1cccc(C2NCCc3sccc32)c1 (stereo not drawn) | 6.6 °C
